Literature values as cited in patent US20230183323A1 (BROWN UNIVERSITY, priority 2020, published 2023).

Molecular target: CDK2 (Homo sapiens, UniProt P24941)
Set-up: key to the marks not given beside the values
Details: cited from earlier work

In the case of CC(C)[C@H](CO)Nc1nc(Nc2cccc(Cl)c2)c2ncn(C(C)C)c2n1, the “Inhibitory potency CDK2” value is given as “+++”.
